The values that follow are results of earlier work, collected in patent US7709647B2, “Tetrahydroquinoline cannabinoid receptor modulators” (Bristol-Myers Squibb Company, priority 2005, dated 2010).

SMILES strings stand for the structures.

For the data set the following is noted: chronic administration for two weeks.

On to `Cc1c(C(=O)NN2CCCCC2)nn(-c2ccc(Cl)cc2Cl)c1-c1ccc(I)cc1` [AM-251], for which the adipose tissue mass result is given as “decreased adipose tissue mass”.
